Experimental findings from patent publication US20110172163A1, “Novel Protease Inhibitors” (QUEENSLAND UNIVERSITY OF TECHNOLOGY, priority 2008, published 2011) are described below.

In the test the target is T1, bovine α-chymotrypsin (Bos taurus, UniProt P00766).
T1 construct: purchased Sigma Chemicals
The experiment in a line: Inhibitor kinetics: α-chymotrypsin amidolytic activity. The class given is biochemical. To be noted: substrate W-pNA (0.2 mM). The method, then: All enzymes and substrates were obtained from Sigma Chemicals if not otherwise specified. […] The release of pNa moiety was monitored as described above for 7 minutes with each point being the average of three independent triplicate reactions. IC50 was determined using the Prism 5 software suite (GraphPad software Inc.).

What is called IC50 is the midpoint of a concentration-inhibition curve. In turn, “Sunflower trypsin inhibitor [SFTI-1, reference compound]” yielded an IC50 of 1800 nM.
